In the assay the target is T1, H3 histamine receptor (Homo sapiens, UniProt Q9Y5N1).
T1 construct: host or cells: recombinant frozen ready-to-use cells
Nature of the assay: Aequoscreen intrinsic activity assay (antagonist dose-response). The format is cell-based. As for the experimental part:
Intrinsic activity studies were performed by two methods, Aequoscreen and Lance cAMP assays according to the manufacturer of the ready to use cells with stable expression of the H3 histamine receptor (Perkin Elmer, Waltham, MA, USA).
The Aequoscreen technology uses the recombinant cell lines with stable co-expression of apoaequorin and a GPCR as a system to detect activation of the receptor, following addition of an agonist, via the measurement of light emission. For measurement cells (frozen, ready to use) were thawed and resuspended in 10 mL of an assay buffer containing 5 μM of coelenterazine h. Then cells suspension was placed in a 10 mL Falcon tube, fixed onto a rotating wheel and incubated overnight at RT° in the dark. Cells were diluted with assay buffer to 5000 cells/20 µL. Agonistic ligands 2× (50 μL/well), diluted in assay buffer, were prepared in 1/2 area white polystyrene plates, and the 50 μL of cell suspension was dispensed on the ligands using the injector. The light emission was recorded for 20 s. Cells were incubated with antagonist for 15 min at RT°. Then 50 µL of agonist (3 × EC80 final concentration) was injected onto the mixture of cells and antagonist and the light emission was recorded for 20 s.

Sequences of proteins named here, by UniProt entry; tags and fusion partners are left off. A change or cut given only in a name is not applied to a line headed by its entry.
UniProt Q9Y5N1: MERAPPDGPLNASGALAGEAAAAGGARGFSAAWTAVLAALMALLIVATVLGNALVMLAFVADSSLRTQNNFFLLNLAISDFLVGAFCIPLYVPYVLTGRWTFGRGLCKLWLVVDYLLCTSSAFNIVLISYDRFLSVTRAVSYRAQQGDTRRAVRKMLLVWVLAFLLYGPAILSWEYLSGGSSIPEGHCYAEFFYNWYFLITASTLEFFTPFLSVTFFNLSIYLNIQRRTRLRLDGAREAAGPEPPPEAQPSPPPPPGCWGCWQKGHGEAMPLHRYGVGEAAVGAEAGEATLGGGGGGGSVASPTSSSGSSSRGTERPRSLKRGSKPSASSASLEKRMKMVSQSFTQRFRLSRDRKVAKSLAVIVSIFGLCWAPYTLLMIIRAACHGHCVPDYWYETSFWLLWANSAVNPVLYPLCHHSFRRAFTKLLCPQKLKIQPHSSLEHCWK

Usually IC50 stands for the concentration that gives 50% inhibition. A low value points to greater potency. For `NC(=NCc1ccc(Cl)cc1)SCCCc1cnc[nH]1` [Clobenpropit, reference compound], the IC50 came out at 1.2 ± 0.3 nM.

Values taken from publication PMC8622623, “Histamine H3 Receptor Ligands—KSK-59 and KSK-73—Reduce Body Weight Gain in a Rat Model of Excessive Eating” (Pharmaceuticals, 2021).
